# Binding of CDR-mutated scFvs to a peptide of the spike HR2 region

The target is the same throughout: PDVDLGDISGINAS, from the HR2 region of SARS-CoV-2 spike.

The variants keep the light chain, the linker and the frameworks of Ab-14 (scFv order VH, a (GGGGS)3 linker, VL).
VH: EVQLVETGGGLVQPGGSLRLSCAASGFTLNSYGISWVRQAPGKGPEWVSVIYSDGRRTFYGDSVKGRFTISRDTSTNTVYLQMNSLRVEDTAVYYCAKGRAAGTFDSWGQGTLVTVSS
VL: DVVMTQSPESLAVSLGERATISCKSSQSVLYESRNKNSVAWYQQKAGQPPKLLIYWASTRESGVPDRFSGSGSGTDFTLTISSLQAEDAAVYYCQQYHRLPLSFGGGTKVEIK

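The variants were designed computationally from a first round of random CDR variants and then made and measured. Several design methods are mixed in this list. Affinity was read by AlphaSeq, a pooled yeast mating assay with surface-displayed partners. Mating (16 h, 30 °C) was followed by selection of diploids and sequencing of their barcodes. Each replicate has its own calibration line, from reference interactions of the BCL2 family. There are six technical replicates.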

Sequences are complete VH domains.
This list holds designs with at most six substitutions.
Kd is apparent (estimated from mating counts) and averaged on the log scale over replicates with a signal. Smaller is tighter.
An entry "nd" has no value in the source: the pair was not observed among the diploids in any replicate. This suggests poor binding but is not conclusive.
Empty control strains, which show no peptide, gave a signal in 1% of pairings with all heavy chain designs; the median was 120 nM and 95% of these signals were weaker than 7.0 nM. No background was subtracted. For each scFv, signals with the empty controls are counted beside the result.
In the paper, a design with two or fewer of six values counts as a poor binder.
Of ten entries with the parent sequence, four were seen in most replicates (averages 2.2 nM to 240 nM), three in one and three in none, so single entries are noisy.
Values of this round are not directly comparable with the first-round values of the same sequences.

VH	Kd	detected	control signals
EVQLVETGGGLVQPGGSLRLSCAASGFSLNSYGISWVRQAPGKGPEWVSVIYSDGRRTFYTDNVKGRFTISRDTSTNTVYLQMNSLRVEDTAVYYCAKGNAAGTFDSWGQGTLVTVSS	920 pM	6/6	0/18
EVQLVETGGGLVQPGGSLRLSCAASGFGLNEYGISWVRQAPGKGPEWVSVIYSDGRRTFYGDSVKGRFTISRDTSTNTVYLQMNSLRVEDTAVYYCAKGKAAGTFDTWGQGTLVTVSS	3.1 nM	6/6	0/18
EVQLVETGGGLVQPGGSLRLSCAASGFTLDSYGISWVRQAPGKGPEWVSVIYSDGNRTFYGDSVKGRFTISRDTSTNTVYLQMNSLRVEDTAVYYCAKGRAAGTALSWGQGTLVTVSS	nd	0/6	1/18
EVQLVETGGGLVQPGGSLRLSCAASGFELNTYGISWVRQAPGKGPEWVSVIYSDGRRTFYADSVKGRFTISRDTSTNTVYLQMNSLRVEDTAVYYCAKGEAAGTFDSWGQGTLVTVSS	1.0 nM	6/6	0/18
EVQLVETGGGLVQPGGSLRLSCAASGFELNSYGISWVRQAPGKGPEWVSVIYSDGRRTFYKDSVKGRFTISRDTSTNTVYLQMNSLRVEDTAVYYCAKGKASGTSNSWGQGTLVTVSS	nd	0/6	0/18
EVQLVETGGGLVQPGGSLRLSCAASGFSLNDYGISWVRQAPGKGPEWVSVIYSDGRRTFYGDSVKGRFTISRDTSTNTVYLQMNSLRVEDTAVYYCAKGRAAGTFDHWGQGTLVTVSS	52 nM	6/6	0/18
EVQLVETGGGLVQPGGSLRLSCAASGFNLNTYGISWVRQAPGKGPEWVSVIYSDGRRTFYVDSVKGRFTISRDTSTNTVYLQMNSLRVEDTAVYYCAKGQAAGTFDSWGQGTLVTVSS	27 nM	6/6	1/18
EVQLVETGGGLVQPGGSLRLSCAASGFALDDYGIAWVRQAPGKGPEWVSVIYSDGRRTFYGDSVKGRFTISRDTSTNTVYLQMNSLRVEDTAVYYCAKGRAAGTFRSWGQGTLVTVSS	nd	0/6	0/18
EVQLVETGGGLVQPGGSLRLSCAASWFSLNEYGISWVRQAPGKGPEWVSVIYSDGRRTFYADSVKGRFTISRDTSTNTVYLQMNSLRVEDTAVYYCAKGRTAGTFDSWGQGTLVTVSS	76 pM	1/6	0/18
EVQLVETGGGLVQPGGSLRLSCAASGFDLNSYGISWVRQAPGKGPEWVSVIYSDGRRTFYGDSVKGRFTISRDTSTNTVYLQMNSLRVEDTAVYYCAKGRAAGQFWSWGQGTLVTVSS	nd	0/6	1/18
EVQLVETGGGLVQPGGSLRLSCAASGFTLNMYGISWVRQAPGKGPEWVSVIYSDGRRTFYGDWVKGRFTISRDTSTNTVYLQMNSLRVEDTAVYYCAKGRAAGTFFSWGQGTLVTVSS	2.3 nM	1/6	0/18
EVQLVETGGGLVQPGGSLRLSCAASGFTLNSYGISWVRQAPGKGPEWVSVIYSDGWRTFYTDSVKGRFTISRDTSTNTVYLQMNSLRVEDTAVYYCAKGRTAGTFDSWGQGTLVTVSS	78 nM	5/6	0/18
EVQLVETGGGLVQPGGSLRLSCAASGFDLNSYGISWVRQAPGKGPEWVSVIYSDGRRTFYGDSVKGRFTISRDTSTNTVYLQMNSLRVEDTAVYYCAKGRNAGTFDAWGQGTLVTVSS	960 pM	6/6	0/18
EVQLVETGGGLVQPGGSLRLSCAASGFTLNMYGISWVRQAPGKGPEWVSVIYSDIERTHYGDSVKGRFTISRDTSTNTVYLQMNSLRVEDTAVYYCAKGRAAGTFDSWGQGTLVTVSS	nd	0/6	0/18
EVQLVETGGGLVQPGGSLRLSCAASGFTLNWYGISWVRQAPGKGPEWVSVIYSDGRRTFYGDSVKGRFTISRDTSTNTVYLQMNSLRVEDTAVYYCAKGRAAFTFDQWGQGTLVTVSS	nd	0/6	0/18
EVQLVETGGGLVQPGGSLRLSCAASGFTLNEYGISWVRQAPGKGPEWVSVIYSDGRRTFYGDSVKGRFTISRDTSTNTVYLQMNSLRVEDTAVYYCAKGRAALTFDLWGQGTLVTVSS	nd	0/6	0/18
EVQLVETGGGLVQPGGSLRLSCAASGFELNSYGISWVRQAPGKGPEWVSVIYSDGRRTFYIDSVKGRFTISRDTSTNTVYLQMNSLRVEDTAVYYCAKGVAAGTFDSWGQGTLVTVSS	28 nM	6/6	0/18
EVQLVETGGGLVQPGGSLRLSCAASGFSLNSYGISWVRQAPGKGPEWVSVIYSDGRRTFYQDSVKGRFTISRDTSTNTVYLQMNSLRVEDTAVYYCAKGKVAGTFDSWGQGTLVTVSS	3.3 nM	6/6	0/18
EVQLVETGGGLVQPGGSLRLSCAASGFTLLSYGISWVRQAPGKGPEWVSVIYSDGRRTFYGDSVKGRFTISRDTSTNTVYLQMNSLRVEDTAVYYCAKRRAAGTFDQWGQGTLVTVSS	nd	0/6	0/18
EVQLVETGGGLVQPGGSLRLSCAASGFELNSYGISWVRQAPGKGPEWVSVIYSDGRRTFYGDSVKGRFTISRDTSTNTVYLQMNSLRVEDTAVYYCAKGDAAGTFDGWGQGTLVTVSS	nd	0/6	0/18
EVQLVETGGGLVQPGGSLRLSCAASGFTLNSYGISWVRQAPGKGPEWVSVIMSDGLRTFYDDSVKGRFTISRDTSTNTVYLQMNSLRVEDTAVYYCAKMQLAGTFDSWGQGTLVTVSS	nd	0/6	0/18
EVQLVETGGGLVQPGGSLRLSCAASGFGLNSYGISWVRQAPGKGPEWVSVIYSDGRRTFYADSVKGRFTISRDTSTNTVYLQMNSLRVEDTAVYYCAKGHAAGTFDSWGQGTLVTVSS	3.9 nM	6/6	1/18

Excerpt, the final 3 entries:

VH,Kd,detected,control signals
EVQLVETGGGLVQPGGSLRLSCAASGFELNSYGISWVRQAPGKGPEWVSVIYSDGRRTFYGDSVKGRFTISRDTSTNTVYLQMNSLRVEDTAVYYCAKGDAAGTFDGWGQGTLVTVSS,nd,0/6,0/18
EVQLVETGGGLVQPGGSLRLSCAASGFTLNSYGISWVRQAPGKGPEWVSVIMSDGLRTFYDDSVKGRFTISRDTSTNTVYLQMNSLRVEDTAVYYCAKMQLAGTFDSWGQGTLVTVSS,nd,0/6,0/18
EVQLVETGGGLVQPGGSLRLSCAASGFGLNSYGISWVRQAPGKGPEWVSVIYSDGRRTFYADSVKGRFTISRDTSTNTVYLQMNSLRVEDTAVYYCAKGHAAGTFDSWGQGTLVTVSS,3.9 nM,6/6,1/18

Values reported by Li et al. 2023, doi:10.1038/s41467-023-39022-2 (FLAb copy).